The values that follow come from patent US20250361280A1 (Protagonist Therapeutics, Inc., priority 2022, published 2025).

Assay [1] deals with T1, ferroportin (Homo sapiens, UniProt Q9NP59).
T1 sequence (Q9NP59 1-571): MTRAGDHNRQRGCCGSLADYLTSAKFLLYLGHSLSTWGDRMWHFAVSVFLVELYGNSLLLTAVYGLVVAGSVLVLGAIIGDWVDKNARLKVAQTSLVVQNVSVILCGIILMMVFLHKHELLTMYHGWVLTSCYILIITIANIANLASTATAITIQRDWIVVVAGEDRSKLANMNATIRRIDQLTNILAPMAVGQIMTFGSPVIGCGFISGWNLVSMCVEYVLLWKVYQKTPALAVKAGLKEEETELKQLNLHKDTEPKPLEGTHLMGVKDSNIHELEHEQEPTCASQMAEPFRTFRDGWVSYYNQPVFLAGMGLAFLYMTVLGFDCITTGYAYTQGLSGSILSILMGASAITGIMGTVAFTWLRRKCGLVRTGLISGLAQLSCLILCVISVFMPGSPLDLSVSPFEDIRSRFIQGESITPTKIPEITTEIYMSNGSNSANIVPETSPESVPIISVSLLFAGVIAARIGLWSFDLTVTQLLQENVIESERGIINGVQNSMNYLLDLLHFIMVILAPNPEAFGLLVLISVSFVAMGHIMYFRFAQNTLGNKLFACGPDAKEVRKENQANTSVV
The experiment in a line: T47D internalization assay in presence of mouse serum albumin. Format: cell-based. Further details: a human breast carcinoma adherent cell line which endogenously expresses ferroportin; host or cells: T47D. Particulars: T47D cells, 0.5% mouse serum albumin, 1 hr incubation. How it is done: The potency of the peptides disclosed in causing ferroportin internalization was evaluated in a T47D cell-based assay. […] In this internalization assay, the potency of the test peptides was evaluated in presence of serum albumin which is the main protein component in the blood. T47D cells were maintained in RPMI media (containing required amount of fetal bovine serum) and regularly sub-cultured. In preparation for the assay, the cells were seeded in 96-well plates at a density of 80-100 k cells per well in 100 ul volume and allowed to rest overnight. On the next day, test peptides were first prepared in dilution series (10-point series, starting concentration of ˜5 μM, typically 3-4×fold dilution steps), all with 0.5% mouse serum albumin (MSA purified from mouse serum; Sigma, A3139). The test peptide dilution series were allowed to incubate at room temperature for 30 min. Then the media was aspirated from the 96-well cell plate and test peptide dilution series were added. After 1 hr incubation, the media with test peptides was aspirated out and AF647-conjugated detection peptide was added at fixed concentration of 200 nM. The AF647-conjugated detection peptide was previously verified to bind to ferroportin and cause its internalization. The cells were washed again after a 2 hr incubation in preparation for flow cytometry analysis. The Median Fluorescence Intensity (MFI) of the AF647-positive population was measured (after removing dead cells and non-singlets from the analysis). The MFI values were used to generate a dose-response curve and obtain IC50 potencies for the test peptides. The IC50 potencies were calculated by using 4-parameter non-linear fitting function in Graphpad Prism and the results are provided in Table 1C.

The target in assay [2] is T1, ferroportin. The experiment in a line: FPN internalization assay (FPN activity assay), loss of ferroportin-GFP fluorescence. Format: cell-based.
Where [3] appears, read: Table 1C, read-out: IC50: T47D MSA.
Where [4] appears, read: Table 1C, HEK293 cells stably expressing ferroportin-GFP, compound at least 18 hours, read-out: IC50: FPN.
The mark [5] stands for this setting: Table 1D, read-out: IC50: T47D MSA.
The mark [6] stands for this setting: Table 1D, HEK293 cells stably expressing ferroportin-GFP, compound at least 18 hours, read-out: IC50: FPN.

For `CCCCCCCCCCCCCCCC(=O)NCCCCCC(=O)NCCCC[C@H](NC(=O)[C@@H]1CCCN1C(=O)[C@@H](NC(=O)[C@H](Cc1c[nH]cn1)NC(=O)[C@@H](NC(=O)[C@H](CCC(=O)O)NC(=O)CC(C)C)[C@@H](C)O)C(c1ccccc1)c1ccccc1)C(=O)N[C@H](C(N)=O)C(c1ccccc1)c1ccccc1` [compound 36], the IC50 lay within 10 to 100 nM on ferroportin [1] (setting [3]) and 1 to 30 nM on ferroportin [2] (setting [4]).

Consider `CC(C)CC(=O)N[C@H]1CCC(=O)N(Cc2ccccc2)CCNC(=O)[C@H](CCCCNC(=O)CCOCCOCCOCCOCCNC(=O)CCCc2ccc(I)cc2)NC(=O)[C@@H]2CSSC[C@H](NC1=O)C(=O)N[C@@H](Cc1c[nH]cn1)C(=O)N[C@@H](C(c1ccccc1)c1ccccc1)C(=O)N2` [compound 61], for which the IC50 on ferroportin [1] (setting [5]) was above 500 nM; on ferroportin [2] (setting [6]), 100 to 500 nM.

For `CC(C)CC(=O)N[C@@H](CCC(=O)O)C(=O)N[C@H](C(=O)N[C@@H](Cc1c[nH]cn1)C(=O)N[C@H](C(=O)N1CCC[C@H]1C(=O)N[C@H](CCCCN)C(=O)N(Cc1ccccc1)C(CC(C)C)C(N)=O)C(c1ccccc1)c1ccccc1)[C@@H](C)O` (stereo partly drawn) [compound 145], the IC50 lay within 100 to 500 nM on ferroportin [1] (setting [5]) and 30 to 100 nM on ferroportin [2] (setting [6]).

As for `CCCCCCCCCCCCCCCC(=O)NCC[N+](C)(C)CC(=O)NCCOCCOCC(=O)NCCOCCOCC(=O)NCCCC[C@H](NC(=O)[C@@H]1CCCN1C(=O)[C@@H](NC(=O)[C@H](Cc1c[nH]cn1)NC(=O)[C@@H](NC[C@H](CCC(=O)O)NC(=O)CC(C)C)[C@@H](C)O)C(c1ccccc1)c1ccccc1)C(=O)NCCCCCc1ccccc1` [compound 109], the half-maximal inhibitory concentration (IC50) on ferroportin [1] (setting [5]) is 0.1 to 10 nM; at ferroportin [2] (setting [6]) it was above 500 nM.

On to `CCCCCCCCCCCCCCCC(=O)NCCOCCOCCOCCOCCOCCOCCOCCOCCOCCOCCOCCOCCC(=O)NCCCC[C@H](NC(=O)[C@@H]1CCCN1C(=O)[C@@H](NC(=O)[C@H](Cc1c[nH]cn1)NC(=O)[C@@H](NC(=O)[C@H](CCC(=O)O)NC(=O)CC(C)C)[C@@H](C)O)C(c1ccccc1)c1ccccc1)C(=O)N[C@@H](Cc1ccccc1)C(=O)NCCCCC` [compound 186], for which the IC50 on ferroportin [1] (setting [5]) was 0.1 to 10 nM; on ferroportin [2] (setting [6]), 1 to 30 nM.

With `CCCCCCCCCCCCCCCC(=O)NCC[N+](C)(C)CC(=O)NCCOCCOCC(=O)NCCOCCOCC(=O)NCCCC[C@H](NC(=O)[C@@H]1CCCN1C(=O)[C@@H](NC(=O)[C@H](Cc1c[nH]cn1)NC(=O)[C@@H](NC(=O)C(CCCC(C)C)CCC(=O)OC)[C@@H](C)O)C(c1ccccc1)c1ccccc1)C(=O)NCCCCc1ccccc1` (stereo partly drawn) [compound 214], the IC50 was 100 to 500 nM on ferroportin [1] (setting [5]) and above 500 nM on ferroportin [2] (setting [6]).

For `CC(C)CC(=O)N[C@@H](CCC(=O)O)C(=O)N[C@H]1CSSC[C@@H](C(=O)N[C@H](C(=O)N(C)[C@@H](CCCCNC(=O)CCCc2ccc(I)cc2)C(=O)N[C@H](C(=O)N[C@H](CCCCN)C(N)=O)C(c2ccccc2)c2ccccc2)C2CCCCC2)NC(=O)[C@H](C(c2ccccc2)c2ccccc2)NC(=O)[C@H](Cc2c[nH]cn2)NC1=O` [compound 63], the IC50 on ferroportin [1] (setting [5]) lay within 100 to 500 nM; on ferroportin [2] (setting [6]) it was 30 to 100 nM.

Consider `CC(C)CC(=O)N[C@@H](CCC(=O)O)C(=O)N[C@H](C(=O)N[C@@H](Cc1c[nH]cn1)C(=O)N[C@H](C(=O)N1CCC[C@H]1C(=O)NC1C2CC3CC1CC(C(=O)N[C@@H](CCCCNC(=O)COCCOCCNC(=O)COCCOCCNC(=O)[C@H](CN)NC(=O)CCCCCCCCCCCCCCCCC(=O)O)C(=O)N[C@H](CC(=O)N[C@H](CCCCN)C(N)=O)Cc1ccccc1)(C3)C2)C(c1ccccc1)c1ccccc1)[C@@H](C)O` (stereo partly drawn) [compound 48], for which the IC50 on ferroportin [1] (IC50: T47D MSA, Table 1C) lay in the range of 10 to 100 nM; against ferroportin [2], 30 to 100 nM.

As for `CC(C)CC(=O)N[C@@H](CCC(=O)O)C(=O)N[C@H](C(=O)N[C@@H](Cc1c[nH]cn1)C(=O)N[C@H](C(=O)N1CCC[C@H]1C(=O)N[C@H](CCCCN)C(=O)N(Cc1ccccc1)C(CCCCCCC(=O)O)C(N)=O)C(c1ccccc1)c1ccccc1)[C@@H](C)O` (stereo partly drawn) [compound 149], the IC50 on ferroportin [1] (IC50: T47D MSA (nM, Table 1D)) is above 500 nM; against ferroportin [2], above 500 nM.

Consider `CCCCCCCCCCCCCCCC(=O)NCC[N+](C)(C)CC(=O)NCCOCCOCC(=O)NCCOCCOCC(=O)NCCCC[C@H](NC(=O)[C@@H]1CCCN1C(=O)[C@@H](NC(=O)[C@H](Cc1c[nH]cn1)NC(=O)[C@@H](NC(=O)[C@H](CCC(=O)O)NC(=O)CC(C)C)[C@@H](C)O)C(c1ccccc1)c1ccccc1)C(=O)NCCc1ccncc1` [compound 72], for which the IC50 at ferroportin [1] (IC50: T47D MSA (nM, Table 1D)) was in the range of 0.1 to 10 nM; against ferroportin [2], 1 to 30 nM.

Regarding `CCCCCCCCCCCCCCCC(=O)N[C@@H](CN)C(=O)NCCOCCOCC(=O)NCCOCCOCC(=O)NCCCC[C@H](NC(=O)[C@@H]1CSSC[C@H](NC(=O)[C@H](CCC(=O)O)NC(=O)CC(C)C)C(=O)N[C@@H](Cc2c[nH]cn2)C(=O)N[C@@H](C(c2ccccc2)c2ccccc2)C(=O)N1)C(=O)NCCCCc1ccccc1` [compound 198], the IC50 on ferroportin [1] (setting [5]) fell in the range of 0.1 to 10 nM; on ferroportin [2] (setting [6]), 30 to 100 nM.

As to `CCCCCCCCCCCCCCCC(=O)NCCCCCC(=O)NCCCC[C@H](NC(=O)[C@@H]1CCCN1C(=O)[C@@H](NC(=O)[C@H](Cc1c[nH]cn1)NC(=O)[C@@H](NC(=O)[C@H](CCC(=O)O)NC(=O)CC(C)C)[C@@H](C)O)C(c1ccccc1)c1ccccc1)C(=O)N[C@@H](Cc1ccc(OCCN)cc1)C(N)=O` [compound 31], the IC50 was in the range of 10 to 100 nM on ferroportin [1] (setting [3]) and 100 to 500 nM on ferroportin [2] (setting [4]).

As to `CCCCCCCCCCCCCCCC(=O)NCCOCCOCCOCCOCCOCCOCCOCCOCCC(=O)NCCCC[C@H](NC(=O)[C@@H]1CCCN1C(=O)[C@@H](NC(=O)[C@H](Cc1c[nH]cn1)NC(=O)[C@@H](NC(=O)[C@H](CCC(=O)O)NC(=O)CC(C)C)[C@@H](C)O)C(c1ccccc1)c1ccccc1)C(=O)NCCCCCc1ccccc1` [compound 118], the IC50 was 0.1 to 10 nM at ferroportin [1] (setting [5]) and 1 to 30 nM at ferroportin [2] (setting [6]).

With `COC(=O)CCC(CCCC(C)C)C(=O)N1C[C@@H]2C[C@H]1C(=O)N[C@@H](Cc1c[nH]cn1)C(=O)N[C@@H](C(c1ccccc1)c1ccccc1)C(=O)N1C[C@@H](C[C@H]1C(=O)N(C)[C@@H](CCCC[N+](C)(C)C)C(=O)NCCCCc1ccccc1)SS2` (stereo partly drawn) [compound 171], the half-inhibitory concentration (IC50) on ferroportin [1] (setting [5]) and on ferroportin [2] (setting [6]) was above 500 nM throughout.

On to `CCCCCCCCCCCCCCCC(=O)NCC[N+](C)(C)CC(=O)NCCCCCC(=O)NCCCC[C@H](NC(=O)[C@@H]1CCCN1C(=O)[C@@H](NC(=O)[C@H](Cc1c[nH]cn1)NC(=O)[C@@H](NC(=O)[C@H](CCC(=O)O)NC(=O)CC(C)C)[C@@H](C)O)C(c1ccccc1)c1ccccc1)C(=O)NCCCCc1ccccc1` [compound 219], for which the figures for the IC50 on ferroportin [1] (setting [5]) and on ferroportin [2] (setting [6]) were 10 to 100 nM and 1 to 30 nM, respectively.

For `CCCCCCCCCCCCCCCC(=O)NCC[N+](C)(C)CC(=O)NCC[N+](C)(C)CC(=O)NCCCC[C@@H](C(=O)NCCCCCc1ccccc1)N(C)C(=O)[C@@H]1CCCN1C(=O)[C@@H](NC(=O)[C@H](Cc1c[nH]cn1)NC(=O)[C@@H](NC(=O)[C@H](CCC(=O)O)NC(=O)CC(C)C)[C@@H](C)O)C(c1ccccc1)c1ccccc1` [compound 69], the IC50 lay within 10 to 100 nM at ferroportin [1] (setting [5]) and 1 to 30 nM at ferroportin [2] (setting [6]).

As to `CCCCCCCCCCCCCCCC(=O)NCC[N+](C)(C)CC(=O)NCCOCCOCC(=O)NCCOCCOCC(=O)NCCCC[C@H](NC(=O)[C@@H]1CCCN1C(=O)[C@@H](NC(=O)[C@H](Cc1c[nH]cn1)NC(=O)[C@@H](NC(=O)[C@H](CCC(=O)O)NC(=O)CC(C)C)[C@@H](C)O)C(c1ccccc1)c1ccccc1)C(=O)NC1CCC(c2ccccc2)CC1` (stereo partly drawn) [compound 100], the figures for the IC50 at ferroportin [1] (setting [5]) and at ferroportin [2] (setting [6]) were 0.1 to 10 nM and above 500 nM, respectively.

`CCCCCCCC/C=C\CCCCCCCC(=O)N[C@@H](CN)C(=O)NCCOCCOCC(=O)NCCOCCOCC(=O)NCCCC[C@H](NC(=O)[C@@H]1CCCN1C(=O)[C@@H](NC(=O)[C@H](Cc1c[nH]cn1)NC(=O)[C@@H](NC(=O)[C@H](CCC(=O)O)NC(=O)CC(C)C)[C@@H](C)O)C(c1ccccc1)c1ccccc1)C(=O)NCCCCc1ccccc1` [compound 130]: the IC50 on ferroportin [1] (setting [5]) was in the range of 0.1 to 10 nM; at ferroportin [2] (setting [6]), 1 to 30 nM.

The term IC50 denotes the midpoint of a concentration-inhibition curve.
